Reference: patent publication US20250017936A1, “CELL-POTENT BISUBSTRATE INHIBITORS FOR NICOTINAMIDE N-[…] (NNMT) AND USES THEREOF” (priority 2021, published 2025)

Test: in vitro
Conditions: PAMPA, Permeability, Tables 1-3 and Example 6, ND = no detected permeability

For `CC(=O)N(CC#Cc1ccc(Cl)c(C(N)=O)c1)C[C@H]1C[C@@H](n2ccc3c(Cl)ncnc32)[C@H](O)[C@@H]1O` [II559, 2-chloro-5-(3-(N-(((1R,2R,3S,4R)-4-(4-chloro-7H-pyrrolo[2,3-d]pyrimidin-7-yl)-2,3-dihydroxycyclopentyl)methyl)acetamido)prop-1-yn-1-yl)benzamide], the Papp was 0.06 ± 0.016 ×10⁻⁶ cm/s.
